Earlier results in US7179597B2, “Genetic diagnosis for QT prolongation related adverse drug reactions” (Georgetown University, priority 2000, dated 2007).
Entries after “also recorded” stand apart in the source; their conditions may differ.

Chains of the proteins cited; added tags and fusions are not shown.
UniProt P10635, whole entry: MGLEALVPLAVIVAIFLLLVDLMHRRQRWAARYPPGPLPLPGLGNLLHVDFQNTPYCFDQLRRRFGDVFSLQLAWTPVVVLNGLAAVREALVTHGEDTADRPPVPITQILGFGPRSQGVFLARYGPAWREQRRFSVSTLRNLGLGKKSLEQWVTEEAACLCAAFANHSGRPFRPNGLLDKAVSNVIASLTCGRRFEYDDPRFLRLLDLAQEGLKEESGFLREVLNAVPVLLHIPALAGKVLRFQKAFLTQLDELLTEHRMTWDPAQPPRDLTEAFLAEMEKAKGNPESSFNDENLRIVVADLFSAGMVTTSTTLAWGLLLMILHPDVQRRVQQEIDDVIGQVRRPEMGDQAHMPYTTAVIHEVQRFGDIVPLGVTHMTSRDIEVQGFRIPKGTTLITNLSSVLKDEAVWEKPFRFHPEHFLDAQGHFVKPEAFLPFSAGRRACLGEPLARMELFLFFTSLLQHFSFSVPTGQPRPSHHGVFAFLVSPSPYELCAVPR

Molecular target: CYP2D6 (Homo sapiens, UniProt P10635)
Details: Table 3; cited from earlier work

CNCCC(Oc1ccc(C(F)(F)F)cc1)c1ccccc1 (stereo not shown) [Fluoxetine]
Interactions: cytochrome P-450 isoform 2D6, substrate or inhibitor: Substrate; also recorded: Inhibitor
